AlphaSeq binding of Ab-14 heavy chain variants to a spike HR2 peptide

Target peptide (SARS-CoV-2 spike, HR2 region): PDVDLGDISGINAS

Parent scFv Ab-14: VH joined to VL by a (GGGGS)3 linker. Changes lie in the heavy chain CDRs alone.
VH: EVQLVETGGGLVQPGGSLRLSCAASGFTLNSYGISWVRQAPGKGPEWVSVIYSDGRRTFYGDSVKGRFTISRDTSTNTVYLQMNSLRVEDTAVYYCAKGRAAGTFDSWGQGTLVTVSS
VL: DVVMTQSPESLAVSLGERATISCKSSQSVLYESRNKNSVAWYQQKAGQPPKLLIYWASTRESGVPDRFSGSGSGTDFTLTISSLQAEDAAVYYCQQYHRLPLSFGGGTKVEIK

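Phage display of a naive human antibody library on the peptide gave the parent. Designed CDR sequences, proposed from the first random library and measured here. Several design methods are mixed in this list. Affinity was read by AlphaSeq, a pooled yeast mating assay with surface-displayed partners. Binding brings cells together so that they mate, and sequencing counts the barcode pairs among the diploids. A regression on co-assayed BCL2-family reference pairs converts the normalised counts of each replicate to an apparent Kd. There are six technical replicates.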

Each variant is given by its three heavy chain CDRs, as the data file delimits them; those of the parent are GFTLNSYGIS, VIYSDGRRTFYGDSVK, GRAAGTFDS. This list holds designs with more than six substitutions. Scale: log10 of Kd in nM, estimated from mating counts; low values are strong binders. Replicates are averaged; those with no signal do not enter the mean. "nd" means that the variant was in the library but no mating with the target was seen in any replicate; the authors take this as a sign of poor binding, and no number exists. Entries are sorted by rising average, undetected variants last. Of ten entries with the parent sequence, four were seen in most replicates (averages 0.34 to 2.37), three in one and three in none, so single entries are noisy. A sequence measured in both rounds can read differently, since the two assays cover different ranges. Background: pairings of all heavy chain designs with three empty control strains gave a value in 1% of cases (median 2.08, 5th percentile 0.84). Values in that range, when seen in few replicates, are hard to tell from nonspecific mating. The control count says in how many pairings with the empty strains this scFv gave a signal. The authors' rule: three or more of the six replicates give a measured affinity, fewer mean a poor binder.

For GFDLNEYGIS / VIYADGRRTAYVDSVK / GHAAGTFDV, the assay gave -1.42 (6 of 6 replicates; controls 0 of 18). The variant GFDLDEYGVS / VIYADGMRMAYLNDVK / GQKGNVFFM gave -1.15 (6 of 6 replicates; controls 0 of 18). For GFDLNEYGIS / VIYADGMRKAYADSVK / GNVAGTFDI, the assay gave -1.15 (6 of 6 replicates; controls 0 of 18). With GFDLDEYGIS / VIYADGMRTFYADSVK / GQVAGTFDV the result was -0.90 (6 of 6 replicates; controls 0 of 18). With GFDLNEYGIS / VIYADGVRTYYADSVK / GENAGTFDI the result was -0.88 (6 of 6 replicates; controls 0 of 18). With GFDLNEYGIS / VIYADGKRTFYTDSVK / GENAGTFDV the result was -0.69 (6 of 6 replicates; controls 0 of 18). With GFDLDEYGIS / VIYADGKRTAYADSVK / GNVAGTFDV the result was -0.65 (6 of 6 replicates; controls 0 of 18).

With GFDLNEYGIS / VIYADGLRTAYADSVK / GNQAGTFDV the result was -0.64 (6 of 6 replicates; controls 0 of 18). The variant GFDLDEYGIS / VIYADGRRTYYADSVK / GTNAGTFDV gave -0.57 (6 of 6 replicates; controls 0 of 18). With GFDLNEYGIS / VIYADGRRTAYADSVK / GNIAGTFDV the result was -0.44 (6 of 6 replicates; controls 1 of 18). For GFDLNEYGIS / VIYADGMRTFYADSVK / GNVAGTFDS, the assay gave -0.41 (6 of 6 replicates; controls 1 of 18). With GFDLNEYGIS / VIYADGRRTFYSDSVK / GQLAGTFDQ the result was -0.39 (6 of 6 replicates; controls 0 of 18). With GFDLDEYGIS / VIYADGKRTAYSDSVK / GNVAGTFDT the result was -0.33 (6 of 6 replicates; controls 0 of 18). With GFDLESYGIS / VIYADGRRTFYADKVK / GENAGTFDV the result was -0.32 (6 of 6 replicates; controls 1 of 18).

For GFNLNEYGIS / VIYADGMRTFYADSVK / GETAGTFDN, the assay gave -0.04 (6 of 6 replicates; controls 2 of 18). The variant GFDLDEYGIS / VIYADGQRTFYADSVK / GSNAGTFDM showed -0.02 (6 of 6 replicates; controls 0 of 18). With GFDLDEYGIS / VIYADGRRTFYADSVK / GEIAGTFDS the result was 0.08 (6 of 6 replicates; controls 0 of 18). The variant GFDLNEYGIS / VIYADGVRTAYADDVK / GENAGTFDL gave 0.28 (6 of 6 replicates; controls 0 of 18). The variant GFDLNEYGIS / VIYADGKRTFYSDSVK / GNQAGTFDV gave 0.33 (6 of 6 replicates; controls 0 of 18). The variant GFDLNEYGIS / VIYADGQRTSYADSVK / GQNAGTFDQ gave 0.51 (6 of 6 replicates; controls 3 of 18). For FFKLEDYGIS / VIYADGKRTAYEQNVK / GQIAGTFDV, the assay gave 0.64 (2 of 6 replicates; controls 0 of 18).

The variant GFDLQEYGIS / VIYADGKRSMYTNDVK / GELGLGELI showed 0.85 (1 of 6 replicates; controls 0 of 18). The variant GFNLDEYGIS / VIYADGKRSMYADKVK / GVDGDFMMD gave 0.90 (1 of 6 replicates; controls 1 of 18). The variant GFDLNEYGIS / VIYADGMRTAYADSVK / GNEAGTFDL gave 0.94 (6 of 6 replicates; controls 0 of 18). The variant GFELEEYGIS / VIYADGQRTFYADNVK / GGVDTDTRY gave 1.49 (6 of 6 replicates; controls 1 of 18). For GFDVDEQGIS / VIYADGRRSQYANSVK / GAIGGTFDM, the assay gave 2.32 (2 of 6 replicates; controls 1 of 18). For GALIEEYGIS / VIYADGVRKAYVNSFK / GEVGGTFTN, the assay gave 2.78 (1 of 6 replicates; controls 1 of 18). The variant EFDLQEYGIS / VIYADGKRTAYKDNVK / GNGGGVFIA gave 2.99 (1 of 6 replicates; controls 0 of 18).

For GFDLNEYGIS / VIYADGRRTAYSDSVK / GEAAGFFDV, the assay gave 3.54 (1 of 6 replicates; controls 1 of 18). The variant GFQIDEYGIS / VIYADGRRASYAADVK / GSYDSDGLT gave 4.47 (1 of 6 replicates; controls 1 of 18). With GFQIDEYGIS / VIYADGKRSMYADKVK / GVDADTMMF the result was nd (0 of 6 replicates; controls 0 of 18). For GQDLNEYGVS / VIYADGQRVQYAEDVK / GGYSGAVDF, the assay gave nd (0 of 6 replicates; controls 0 of 18). The variant GEDLNSYGIS / VIYADGLRTVYSDNFK / GNLGGQFDM showed nd (0 of 6 replicates; controls 0 of 18). The variant GFTLNSYGIL / VIYGPGRRTFYDDSVK / SQLAGTFDS showed nd (0 of 6 replicates; controls 0 of 18). With GFDINEYGIS / VIYADGRRVEYNDKVK / GMLTGTFDQ the result was nd (0 of 6 replicates; controls 0 of 18).

The variant GFNINEYGIS / VIYADGTRTAYANTVK / GKYVGTFVD showed nd (0 of 6 replicates; controls 0 of 18). With GFDLNEYGIS / VIYADGRRTFYSDSVK / GHNAGTFIQ the result was nd (0 of 6 replicates; controls 0 of 18). For GFGLAEYGIS / VIYADGQRKSYANKVK / GRLSGTVIM, the assay gave nd (0 of 6 replicates; controls 0 of 18). For GFDIDEFGIS / VIYADGKRTSYSDTVK / GQLGNAFDL, the assay gave nd (0 of 6 replicates; controls 0 of 18). For GFDLNEYGIS / VIYADGMRTAYADSVK / GGNAGTFDQ, the assay gave nd (0 of 6 replicates; controls 0 of 18).

Values reported by Li et al. 2023, doi:10.1038/s41467-023-39022-2 (FLAb copy).